The target of this assay is Sodium-dependent noradrenaline transporter (Homo sapiens) (UniProt P23975). The assay can be described thus: Displacement of [3H]-Nisoxetine from human NET expressed in HEK cell membrane at 10 uM by radioligand binding assay relative to control. A general note: Loss of bound radioactivity is the signal in a displacement assay; it reports binding, not function.

Amino acid sequences for entries named in this document (tags omitted).
UniProt P23975, whole entry: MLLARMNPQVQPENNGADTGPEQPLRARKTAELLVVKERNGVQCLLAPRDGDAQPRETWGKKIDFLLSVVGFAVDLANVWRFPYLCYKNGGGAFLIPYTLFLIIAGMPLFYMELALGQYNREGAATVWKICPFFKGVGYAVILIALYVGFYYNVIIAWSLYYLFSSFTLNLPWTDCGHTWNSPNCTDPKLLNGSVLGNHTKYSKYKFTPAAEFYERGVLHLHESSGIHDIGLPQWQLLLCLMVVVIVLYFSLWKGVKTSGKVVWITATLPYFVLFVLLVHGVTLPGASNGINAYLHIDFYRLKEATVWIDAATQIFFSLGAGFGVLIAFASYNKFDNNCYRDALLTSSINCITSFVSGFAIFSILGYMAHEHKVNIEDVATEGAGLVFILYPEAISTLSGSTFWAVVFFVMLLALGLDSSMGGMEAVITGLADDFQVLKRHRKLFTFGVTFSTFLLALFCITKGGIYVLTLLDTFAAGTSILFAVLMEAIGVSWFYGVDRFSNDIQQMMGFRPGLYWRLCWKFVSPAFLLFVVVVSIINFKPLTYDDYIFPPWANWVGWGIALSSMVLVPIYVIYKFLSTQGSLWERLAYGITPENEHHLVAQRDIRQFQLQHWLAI

Some of these compounds have results that are not shown, active ones among them.

Our source for the inhibition values is ChEMBL document CHEMBL5053542, “C-terminal modified Enkephalin-like tetrapeptides with enhanced affinities at the kappa opioid receptor and monoamine transporters” (Bioorg Med Chem, 2021).

`CCCC[C@@H](NC(=O)[C@@H](N)Cc1ccc(O)cc1)C(=O)NCC(=O)N[C@@H](Cc1ccc(F)cc1)C(=O)N1CCC(N(C(=O)CC)c2ccc(Cl)c(Cl)c2)CC1` came in with an inhibition of less than 50%.

The inhibition is the relative decrease from the control value, in per cent. Read a high inhibition as a strong effect.
